# Ab-14 heavy chain CDR variants: yeast mating affinities

Source: Li et al. 2023 (doi:10.1038/s41467-023-39022-2), MIT Lincoln Laboratory and A-Alpha Bio; data file from the FLAb repository.

Binding partner: SARS-CoV-2 spike HR2 peptide, sequence PDVDLGDISGINAS.

Ab-14 is the parent antibody, in scFv form: VH, then the linker GGGGSGGGGSGGGGS, then VL. The light chain is unchanged in all variants.
VH: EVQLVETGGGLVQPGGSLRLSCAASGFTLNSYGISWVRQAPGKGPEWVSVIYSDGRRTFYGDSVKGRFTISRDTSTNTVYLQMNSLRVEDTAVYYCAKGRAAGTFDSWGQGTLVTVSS
VL: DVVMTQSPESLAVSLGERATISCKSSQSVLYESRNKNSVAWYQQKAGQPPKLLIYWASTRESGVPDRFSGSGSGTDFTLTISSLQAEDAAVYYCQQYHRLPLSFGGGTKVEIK

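Designed CDR sequences, proposed from the first random library and measured here. Several design methods are mixed in this list. Affinity was read by AlphaSeq, a pooled yeast mating assay with surface-displayed partners. Mating (16 h, 30 °C) was followed by selection of diploids and sequencing of their barcodes. The ratio of observed to expected reads was calibrated, replicate by replicate, on BCL2-family standards whose Kd was known from biolayer interferometry. Mating was done six times.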

Each variant is given by its three heavy chain CDRs, as the data file delimits them; those of the parent are GFTLNSYGIS, VIYSDGRRTFYGDSVK, GRAAGTFDS. Each Kd is an estimate from the mating assay, the geometric mean of the replicates in which the pair was seen; lower is stronger. Where no diploid with the target was found in any replicate, the entry reads "no signal": below detection, most likely a poor binder, though not proof of it. The list is sorted by this average, lowest first, undetected variants last.

| CDR-H1 | CDR-H2 | CDR-H3 | Kd | seen in | control signals |
|---|---|---|---|---|---|
| GFDLNEYGIS | VIYADGMRTFYADSVK | GQLAGTFDV | 63 pM | 6 of 6 | 0 of 18 |
| GFDLNEYGIS | VIYADGRRTAYSDSVK | GNVAGTFDV | 250 pM | 6 of 6 | 0 of 18 |
| GFDLNEYGIS | VIYADGVRTAYADSVK | GNEAGTFDL | 260 pM | 6 of 6 | 0 of 18 |
| GFDLNEYGIS | VIYADGMRKAYSDSVK | GEVAGTFDV | 280 pM | 6 of 6 | 0 of 18 |
| GFDLNEYGIS | VIYADGKRTYYADSVK | GNQAGTFDI | 280 pM | 6 of 6 | 0 of 18 |
| GFDLNEYGIS | VIYADGRRTAYTDSVK | GNTAGTFDV | 310 pM | 6 of 6 | 0 of 18 |
| GFDLDEYGIS | VIYADGMRTAYADDVK | GETAGTFDQ | 410 pM | 6 of 6 | 1 of 18 |
| GFDLNEYGIS | VIYADGQRKFYADSVK | GENAGTFDV | 520 pM | 6 of 6 | 0 of 18 |
| GFDLNEYGIS | VIYADGSRTAYADDVK | GNVAGTFDV | 530 pM | 5 of 6 | 0 of 18 |
| GFDLDEYGIS | VIYADGKRTAYADSVK | GNQAGTFDQ | 570 pM | 6 of 6 | 0 of 18 |
| GFDLNEYGIS | VIYADGVRTAYSDSVK | GTNAGTFDV | 590 pM | 6 of 6 | 0 of 18 |
| GFDLDEYGIS | VIYADGRRTFYQDSVK | GEVAGTFDV | 600 pM | 6 of 6 | 0 of 18 |
| GFSLNSYGIS | VIYSDGRRTFYADDVK | GKEAGTFDS | 620 pM | 6 of 6 | 0 of 18 |
| GFDLNEYGIS | VIYADGMRTAYTDSVK | GKNAGTFDV | 630 pM | 6 of 6 | 0 of 18 |
| GFDLNEYGIS | VIYADGRRTFYLDSVK | GESAGTFDQ | 750 pM | 6 of 6 | 0 of 18 |
| GFDLNEYGIS | VIYADGMRTFYADDVK | GENAGTFDV | 920 pM | 6 of 6 | 0 of 18 |
| GFDLNEYGIS | VIYADGRRTFYADSVK | GEAAGTFLL | 1.6 nM | 6 of 6 | 0 of 18 |
| GFSLNEYGIS | VIYSDGRRTFYGDHVK | GRTAGTFDN | 2.3 nM | 6 of 6 | 0 of 18 |
| GFDINEYGIS | VIYADGVRTHYVDDVK | GKHTGVKMM | 2.5 nM | 1 of 6 | 0 of 18 |
| GFDLNEYGIS | VIYADGMRTHYTDSVK | GNEAGTFDK | 3.0 nM | 6 of 6 | 0 of 18 |
| GFDLNSYGIS | VIYSDGRRTFYGDSVK | GREAGTFDW | 5.9 nM | 6 of 6 | 0 of 18 |
| GFTLNEYGIS | VIYSDGIRTFYGDSVK | GRHAGTFDS | 6.0 nM | 6 of 6 | 0 of 18 |
| GFDLNSYGIS | VIYSDGRRTFYRDSVK | GQLAGTFDS | 6.9 nM | 5 of 6 | 0 of 18 |
| GFDLNSYGIS | VIYSDGTRTFYGDSVK | GRQAGTFDS | 17 nM | 6 of 6 | 0 of 18 |
| GFELNAYGIS | VIYSDGRRTFYADSVK | GKTAGTFDS | 21 nM | 6 of 6 | 1 of 18 |
| LFTLNEYGIS | VIYSDGRRTFYQDSVK | GRTAGTFDS | 26 nM | 4 of 6 | 0 of 18 |
| GFDLNEYGIS | VIYADGQRTAYADNVK | GNNAGTFDV | 37 nM | 4 of 6 | 0 of 18 |
| GFTLNSYGIS | VIYSDGCRTAYGDQVK | GSAAGTFDS | 42 nM | 6 of 6 | 0 of 18 |
| KFDIEHYGIS | VIYADGKRTGYSNAVK | GWQGGTFNT | 42 nM | 6 of 6 | 0 of 18 |
| GFSLNWYGIS | VIYSDGRRTFYHDSVK | GRTAGTFDS | 49 nM | 5 of 6 | 1 of 18 |
| LFTLNDYGIS | VIYSDGRRTFYRDSVK | GRTAGTFDS | 70 nM | 1 of 6 | 0 of 18 |
| GFSLNSYGIS | VIYSDGRRTFYGDSVK | GRHAGTFDV | 74 nM | 4 of 6 | 0 of 18 |
| GFTLNDYGIS | VIYSDKRRTQYIDSVK | GRAAGTFFS | 93 nM | 1 of 6 | 1 of 18 |
| GFTLNSYGIS | VIYSDGMRTFYSDQVK | GQTAGTFDS | 130 nM | 2 of 6 | 0 of 18 |
| GYDLMEYGIS | VIYADGRRVYYIDDVK | GHVAGHFLL | 150 nM | 1 of 6 | 1 of 18 |
| GFTLNSYGIS | VIYSDGRRTFYGDSVK | GIAAGTFDS | 430 nM | 6 of 6 | 1 of 18 |
| GNDLSEYGIS | VIYADGIRTNYSQNVK | GTLAGTFTQ | 2.0 µM | 2 of 6 | 0 of 18 |
| GFNLDEEGIS | VIYADGVRMSYTDSVK | GYLDGYITD | no signal | 0 of 6 | 0 of 18 |
| GFTLNSYGIS | VIYSDGRRTFYSDSVK | GRAPGTFDD | no signal | 0 of 6 | 0 of 18 |
| GKSLDEYGIS | VIYADGKRTMYANDVK | GHVGAIFMM | no signal | 0 of 6 | 0 of 18 |
| GFNLDEYGIS | VIYADGMRASYINSAK | GNYGIVFTV | no signal | 0 of 6 | 1 of 18 |
| GFDLEKYGIH | VIYADGIRASYSDAVK | GDLSGTLYV | no signal | 0 of 6 | 2 of 18 |
| GFDLDEMGIS | VIYADGVRTAYVDQVK | GMGGTFMNV | no signal | 0 of 6 | 0 of 18 |
| GFTRNEINIS | VIYSDGRRTFYGDSAK | GRAAVTFDQ | no signal | 0 of 6 | 1 of 18 |
| GFDINEYGIS | VIYADGVRTHYVDDVK | GKHTGMKMA | no signal | 0 of 6 | 0 of 18 |
| GFTLNQYGIS | VIYCDGRRTFYKDSVK | GRAAGFFDS | no signal | 0 of 6 | 0 of 18 |
| GFTLNSYGIS | VIYSDGRRTFYSDSVK | GRAHCTFDS | no signal | 0 of 6 | 0 of 18 |
| GFGLDEYGIS | VIYADGQRKSYTDDVK | GLYTNKKGI | no signal | 0 of 6 | 0 of 18 |
| GFTLNSYGIS | VIYSDGMRTFYGDSVK | GYMAGTFDS | no signal | 0 of 6 | 1 of 18 |
| GFTLNSYGIS | VIYSGGRRTFYSDSVK | GRAGNTFDS | no signal | 0 of 6 | 0 of 18 |
| GETLNSYGIS | VIYSDGRRTFYGDNVK | ARAAGTFDS | no signal | 0 of 6 | 1 of 18 |
| GFTLNEYGIS | VIYSDGRRTFYYDSVK | GRHAGTFDS | no signal | 0 of 6 | 0 of 18 |
| GFDLEDYGIS | VIYADGKRTAYADSVK | GNNAGTFDV | no signal | 0 of 6 | 0 of 18 |
| GFTLNDYGIS | VEYSDGRRTQYIDFVK | FRRADTFDN | no signal | 0 of 6 | 0 of 18 |
| GFTLNSYGIS | VIYSDGRRTCYGDSVK | GRAAGTFDS | no signal | 0 of 6 | 0 of 18 |
| GFVLNEYGIS | VIYSDGKRTMYSDSVK | GRASGTVRS | no signal | 0 of 6 | 0 of 18 |
| GFSLNDYGIS | VIYSDGRRTWYGDSVK | GRAAGTFIS | no signal | 0 of 6 | 1 of 18 |
| RFTLNSYGIS | VIYSDGRRTFYNDSVK | GFAAGTFDS | no signal | 0 of 6 | 0 of 18 |
| GFTLNAYGIS | VIYSDGRRTFHSDSMK | GRAGMTFDS | no signal | 0 of 6 | 0 of 18 |
| GFTLNDYGIS | VIYSLGRRTQYIDSKK | GRAAGTFDS | no signal | 0 of 6 | 0 of 18 |
| GFTLNSYGIS | VIYSDGMRTFYKDSVK | GRAAGTGDS | no signal | 0 of 6 | 0 of 18 |
| GFTCDSYGIS | VIYSDGRRTFYGDSVK | GRAAGTALS | no signal | 0 of 6 | 0 of 18 |

The closing 8 entries, repeated:

| CDR-H1 | CDR-H2 | CDR-H3 | Kd | seen in | control signals |
|---|---|---|---|---|---|
| GFTLNSYGIS | VIYSDGRRTCYGDSVK | GRAAGTFDS | no signal | 0 of 6 | 0 of 18 |
| GFVLNEYGIS | VIYSDGKRTMYSDSVK | GRASGTVRS | no signal | 0 of 6 | 0 of 18 |
| GFSLNDYGIS | VIYSDGRRTWYGDSVK | GRAAGTFIS | no signal | 0 of 6 | 1 of 18 |
| RFTLNSYGIS | VIYSDGRRTFYNDSVK | GFAAGTFDS | no signal | 0 of 6 | 0 of 18 |
| GFTLNAYGIS | VIYSDGRRTFHSDSMK | GRAGMTFDS | no signal | 0 of 6 | 0 of 18 |
| GFTLNDYGIS | VIYSLGRRTQYIDSKK | GRAAGTFDS | no signal | 0 of 6 | 0 of 18 |
| GFTLNSYGIS | VIYSDGMRTFYKDSVK | GRAAGTGDS | no signal | 0 of 6 | 0 of 18 |
| GFTCDSYGIS | VIYSDGRRTFYGDSVK | GRAAGTALS | no signal | 0 of 6 | 0 of 18 |

The range of this assay differs from that of the first round, and the authors advise against merging the two. Empty control strains, which show no peptide, gave a signal in 1% of pairings with all heavy chain designs; the median was 120 nM and 95% of these signals were weaker than 7.0 nM. No background was subtracted. The control count says in how many pairings with the empty strains this scFv gave a signal. The authors averaged sequences with at least three values out of six and counted those with two or fewer as poor binders.